From patent US6723753B2, “Substituted n-benzyl-n-phenyl aminoalcohol compounds useful for inhibiting cholesteryl ester transfer protein activity” (Pharmacia Corporation, priority 2002, dated 2004)

Tests used:
CETP [1] = biological target: T1, CETP (Homo sapiens, UniProt P11597); assay: Assay of CETP Inhibition in Human Plasma; type: biochemical; parameters: Blood was obtained from healthy volunteers, recruited from the personnel of Monsanto Company; from tissue; host or cells: human EDTA plasma pool from healthy volunteers; details: Inhibition of CETP activity in human plasma assay; transfer of [3H]CE from HDL to VLDL and LDL; read-out: IC50
T1 sequence (P11597 18-493): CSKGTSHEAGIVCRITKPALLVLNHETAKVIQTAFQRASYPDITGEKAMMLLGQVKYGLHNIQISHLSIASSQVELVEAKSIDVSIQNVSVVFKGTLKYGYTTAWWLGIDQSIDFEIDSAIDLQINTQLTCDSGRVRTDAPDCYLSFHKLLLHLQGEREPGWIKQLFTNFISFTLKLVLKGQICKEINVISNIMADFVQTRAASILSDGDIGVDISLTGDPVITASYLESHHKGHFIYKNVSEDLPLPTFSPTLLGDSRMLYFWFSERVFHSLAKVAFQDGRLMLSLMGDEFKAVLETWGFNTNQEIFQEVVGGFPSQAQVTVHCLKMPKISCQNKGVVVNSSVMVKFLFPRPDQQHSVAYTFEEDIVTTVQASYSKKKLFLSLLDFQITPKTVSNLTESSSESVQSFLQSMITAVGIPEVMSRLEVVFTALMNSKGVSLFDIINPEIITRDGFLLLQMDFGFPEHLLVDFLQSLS
Experimental: Assay of CETP Inhibition in Human Plasma
Blood was obtained from healthy volunteers, recruited from the personnel of Monsanto Company, Saint Louis, Mo. Blood was collected in tubes containing EDTA (EDTA plasma pool). The EDTA human plasma pool, previously stored at −20° C., was thawed at room temperature and centrifuged for 5 minutes to remove any particulate matter. […] Equal volumes (396 μL) of the plasma containing the [^3H]CE-HDL were added by pipette into micro tubes (Titertube®, Bio-Rad laboratories, Hercules, Calif.). Inhibitor compounds, dissolved as 20-50 mM stock solutions in DMSO, were serially diluted in DMSO (or an alternative solvent in some cases, such as dimethylformamide or ethanol). Four μL of each of the serial dilutions of inhibitor compounds or DMSO alone were then added to each of the tubes containing plasma (396 μL). After mixing, triplicate aliquots (100 μL) from each plasma tube were then transferred to wells of 96-well round-bottomed polystyrene microtiter plates (Corning, Corning, N.Y.). Plates were sealed with plastic film and incubated at 37° C. for 4 hours. “Test” samples contained plasma with dilutions of inhibitor compounds. “Control” samples contained plasma with DMSO diluted to the same concentration as the test samples, but without inhibitor. “Blank” samples were prepared as “control” samples, but were left in the micro tubes at 4° C. for the 4 hour incubation and were then added to the microtiter wells at the end of the incubation period. VDL and LDL were precipitated by the addition of 10 μL of precipitating reagent (1% (w/v) dextran sulfate (Dextralip50)/0.5 M magnesium chloride, pH 7.4) to all wells. The wells were mixed on a plate mixer and then incubated at ambient temperature for 10 min. The plates were then centrifuged at 1000× g for 30 min at 10° C. The supernatants (50 μL) from each well were then transferred to Picoplate™ 96 plate wells (Packard, Meriden, Conn.) containing Microscint™-40 (Packard, Meriden, Conn.). The plates were heat-sealed (TopSeal™-P, Packard, Meriden, Conn.) according to the manufacturer's directions and mixed for 30 min. Radioactivity was measured on a microplate scintillation counter (TopCount, Packard, Meriden, Conn.). The maximum percentage transfer in the control wells (% transfer) was determined using the following equation: [formula]
The percentage of transfer relative to the control (% control) was determined in the wells containing inhibitor compounds was determined as follows: [formula]
IC50 values were then calculated from plots of % control versus concentration of inhibitor compound.

CETP [2] = biological target: T1, CETP; assay: Assay of CETP Inhibition using Purified Components (Reconstituted Buffer Assay); type: biochemical; parameters: made in house; host or cells: CHO cells (serum-free conditioned medium); details: IC50, Inhibition of CETP activity in reconstituted buffer assay; transfer of [3H]CE from HDL to LDL
Experimental: Assay of CETP Inhibition using Purified Components (Reconstituted Buffer Assay)
The ability of compounds to inhibit CETP activity was assessed using an in vitro assay that measured the rate of transfer of radiolabeled cholesteryl ester ([^3H]CE) from HDL donor particles to LDL acceptor particles. Details of the assay are provided by Glenn, K. C. et al. (Glenn and Melton, “Quantification of Cholesteryl Ester Transfer Protein (CETP): A) CETP Activity and B) Immunochemical Assay of CETP Protein,” Meth. Enzymol., 263, 339-351 (1996)). Human recombinant CETP can be obtained from the serum-free conditioned medium of CHO cells transfected with a cDNA for CETP and purified as described by Wang, S. et al. (J. Biol. Chem. 267, 17487-17490 (1992)). To measure CETP activity, [^3H]CE-labeled-HDL, LDL, CETP and assay buffer (50 mM tris(hydroxymethyl)aminomethane, pH 7.4; 150 mM sodium chloride; 2 mM ethylenediamine-tetraacetic acid (EDTA); 1% bovine serum albumin) were incubated in a final volume of 200 μL, for 2 hours at 37° C. in 96 well plates. […] The inhibitors were then diluted 1:1 with CETP in assay buffer, and then 25 μL of that solution was mixed with 175 μL of lipoprotein pool for assay. Following incubation, LDL was differentially precipitated by the addition of 50 μL of 1% (w/v) dextran sulfate/0.5 M magnesium chloride, mixed by vortex, and incubated at room temperature for 10 minutes. A potion of the solution (200 μL) was transferred to a filter plate (Millipore). After filtration, the radioactivity present in the precipitated LDL was measured by liquid scintillation counting.
This value was defined as the IC50.
Examples of IC50 values determined by these methods are specified in Table 9.

IC50 (CETP [1]): > 200 µM
IC50 (CETP [2]): 15 µM
SMILES: Fc1ccc2c(c1)N(Cc1cccc(OC(F)(F)C(F)F)c1)CC(C(F)(F)F)O2 (centres unmarked) [Example 661, 6-fluoro-3,4-dihydro-4-[[3-(1,1,2,2-tetrafluoroethoxy)phenyl]methyl]-2-(trifluoromethyl)-2H-1,4-benzoxazine]
